MC4R antagonist: antagonists of human melanocortin 4 receptor (MC4R) | P32245 | MC4R-expressing cells, MTII-stimulated cAMP, LANCE TR-FRET | inhibition, % at 6.5 µM | 0.48% of 360,000 active | AID 540295;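 active = inhibition above its plate's cutoff, the mean of tested wells on that plate plus 3 SD, cut at about 29% in these data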
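System: U2OS-MC4R stable cell line; Technique: Eu-cAMP/anti-cAMP TR-FRET, emission 671 nm; Repeats: single well per compound; Also added: Melanotan II; Dosing: one concentration, 6.5 µM nominal; Schedule: 30-min compound, 1-h challenge, 1-h detection, room temperature.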
ARFGAP1 inh: rat ARFGAP1 inhibition | Q62848 | Arfgap1-stimulated ARF1 GTP hydrolysis, GDP FP detection | inhibition, % at 16.5 µM | 0.26% of 360,000 active;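 active = inhibition above a per-plate limit, mean inhibition of low control wells plus 3 SD, cut at about 25% in these data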
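Material: rat Arfgap1 GAP domain (His6, aa 1-136), purified enzyme. Also added: human ARF1(Δ1-17)-GTP substrate. Compound dosing: 16.5 µM single point, 1.26% DMSO. Timing: enzyme reaction 120 min at 25 °C after 20 min preincubation. Signal: GDP detection by fluorescence polarization. Read-out basis: percent inhibition of GAP-stimulated GDP formation, scaled between DMSO and no-Arfgap1 medians.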
CendR NRP1 mod: NRP-1/CendR interaction modulation. O14786. inhibition, % at 25 µM. 0.85% of 360,000 active. AID 602438. FAM-RPARPAR peptide binding to NRP-1, fluorescence polarization;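 active = inhibition or corrected inhibition above about 18%, plus a signal ratio from 0.5 to 1.5, limit read from the data, passing the limit was not always enough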
MC4R ag barr: human MC4R agonism via beta-arrestin | P32245 | AID 540308 | 0.98% of 360,000 active | activation, % at 8.9 µM | U2OS MC4R beta-arrestin complementation, luminescence; percent of melanotan II response, DMSO zero;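 active = activation above a per-plate cutoff, the mean activation of sample wells on that plate plus 3 SD, cut at about 8% in these data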
ASAP1 GAP inh: inhibitors of human ASAP1 ArfGAP activity | ASAP1-stimulated ARF1 GTP hydrolysis, GDP FP detection | inhibition, % at 16.5 µM | 0.19% of 360,000 active | AID 624377; in the data active = inhibition above about 25%
UUG fidelity: modulators of yeast start codon fidelity, primary screen, whole organism, S. cerevisiae, single point, plate reader; S. cerevisiae UUG-firefly luciferase reporter, luminescence/redox ratio; activity score, % at 18.7 µM; 0.13% of 350,000 active; AID 602363, 2012;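 active = replicate mean at a twofold rise or more, about +100% in these data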;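 also: firefly luciferase made from a UUG start codon reports start codon fidelity; reporter light over untreated wells divided by growth signal over untreated wells; some hits fall short of that in this replicate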
ARFGAP1 inh conf: confirmation of rat ARFGAP1 inhibitors. AID 651608. shares compounds with ARFGAP1 inh. ARFGAP1-stimulated ARF1 GTP hydrolysis, GDP tracer FP. 30% of 890 active. inhibition, % at 16.5 µM;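 active = average inhibition over triplicates above the hit cutoff set in the earlier primary screen, cut at about 25% in these data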
Numbers stand for hits; 0 = inactive; - = not tested or not shown. Compounds with a hit are over-represented: about 2.3% of the library has one in this group of screens.

SMILES	MC4R antagonist	ARFGAP1 inh	CendR NRP1 mod	MC4R ag barr	ASAP1 GAP inh	UUG fidelity	ARFGAP1 inh conf
CC(=O)Nc1ccc(NC(=O)c2ccc3sc([C@H]4C[C@H](O)[C@@H](CO)O4)nc3c2)cc1	0	0	0	0	0	0	-
O=C(Nc1ccc(F)c(Cl)c1)c1ccc2sc([C@H]3C[C@H](O)[C@@H](CO)O3)nc2c1	0	25	0	0	0	0	0
CN1CCN(c2ccccc2NC(=O)Cn2ncc3c([nH]c4ccccc43)c2=O)CC1	0	0	0	0	0	0	-
Cc1ccc2[nH]c3c(=O)n(CC(=O)Nc4ccccc4N4CCN(C)CC4)ncc3c2c1	0	25	0	0	0	0	48
COc1cc2oc(-c3ccc(O)cc3)cc(=O)c2c(OC)c1O	0	0	0	0	0	0	-
COc1cc2oc(-c3ccc(O)cc3)cc(=O)c2c(O)c1OC	0	36	0	0	0	0	0
C[C@@H]1CN([C@H](C)CO)C(=O)Cc2cc(NC(=O)Nc3ccccc3)ccc2O[C@@H]1CN(C)C(=O)Nc1ccc(C(F)(F)F)cc1	-	-	-	-	-	0	-
NCC[C@H]1CC[C@@H](NC(=O)C2CCCC2)[C@@H](CO)O1	-	-	-	-	-	0	-
O=C(C[C@@H]1C=C[C@H](NC(=O)C2CCC2)[C@H](CO)O1)NCCCN1CCOCC1	-	-	-	-	-	0	-
C#Cc1cccc(C(=O)NC2CCCN(C3Cc4ccccc4C3)C2)c1 (stereo unspecified)	0	0	0	0	0	0	-
CC(C)(CO)CNC1CCCN(C2Cc3ccccc3C2)C1 (stereo unspecified)	0	25	0	0	0	0	0
COc1ccc(C(=O)Nc2ccc(N3CCCC3)cc2)cc1	0	25	0	0	0	0	87
COc1ccc(C(=O)NC(=S)Nc2ccc(N3CCCC3)cc2)cc1	0	0	0	0	0	-	-
O=C(Cc1c[nH]c2ccccc12)Nc1ccc(Nc2cccnc2)c(-c2ccc(Cl)c(Cl)c2)c1	-	0	-	-	0	-	-
O=C(Cc1c[nH]c2ccccc12)Nc1ccc(Nc2cccnc2)c(-c2ccc(OC(F)(F)F)cc2)c1	-	27	-	-	0	-	0
O=C(Cc1c[nH]c2ccccc12)Nc1ccc(Nc2cccnc2)c(-c2cc(F)cc(F)c2)c1	-	25	-	-	0	-	0
O=C(Cc1c[nH]c2ccccc12)Nc1ccc(Nc2cccnc2)c(-c2ccc(Oc3ccccc3)cc2)c1	-	0	-	-	0	-	-
CCCCN(CC)CCNC(=O)c1cc2c(=O)[nH]c3ccc(C)cc3c2s1	0	29	0	0	0	0	0
COc1cccc(S(=O)(=O)N2CCCCN3[C@H](CO)[C@@H](c4ccc(C#CC5CC5)cc4)[C@H]3C2)c1	-	-	-	-	-	0	-
COc1ccc(C(=O)N[C@H](C(=O)Nc2ccc(S(=O)(=O)N3CCOCC3)cc2)C(C)C)cc1	0	25	0	0	0	-	0
CCOc1ccc(C(=O)N[C@H](C(=O)Nc2cccc(S(=O)(=O)N3CCOCC3)c2)C(C)C)cc1	0	0	0	0	0	0	-
C[C@H]1CN([C@@H](C)CO)C(=O)c2cc(C#Cc3cccnc3)cnc2O[C@@H]1CN(C)C(=O)CN(C)C	-	-	-	-	-	0	-
COc1ccc(-c2nc(CS(=O)(=O)CC(=O)Nc3cccc(C(C)=O)c3)c(C)o2)cc1	0	27	0	0	0	0	0
COc1cccc(-c2csc(N3CCN(C(=O)Nc4ccc(Cl)cc4)CC3)n2)c1	0	28	0	0	0	-	0
COc1ccc(NC(=O)N2CCN(c3nc(-c4cccc(OC)c4)cs3)CC2)cc1	0	0	0	0	0	0	-
SMILES	MC4R antagonist	ARFGAP1 inh	CendR NRP1 mod	MC4R ag barr	ASAP1 GAP inh	UUG fidelity	ARFGAP1 inh conf
CO[C@@H]1CN(C)C(=O)c2ccc(NS(=O)(=O)c3ccc(Cl)cc3)cc2OC[C@H](C)N(C)C[C@@H]1C	-	-	-	-	-	0	-
CCc1ccc2cc(C)cnc2n1	-	0	0	-	0	0	-
Cc1cnc2nc(-c3ccccc3)ccc2c1	-	26	0	-	0	0	0
FC(F)Oc1ccc(NC(=S)NC23CC4CC(CC(C4)C2)C3)cc1	0	25	0	0	0	0	0
COc1ccc(S(=O)(=O)N2CCN(Cc3cc(OC)c(OC)cc3OC)CC2)cc1	0	27	0	0	0	0	0
COc1cc(OC)c(OC)cc1CN1CCN(S(=O)(=O)c2ccc(NC(C)=O)cc2)CC1	0	0	0	0	0	-	-
CC12CCC(=O)N1C(C(=O)NCCN1C(=O)S/C(=C\c3ccc(OC(F)F)cc3)C1=O)CS2 (stereo unspecified)	0	25	0	0	0	0	0
COc1ccc(/C=C2\SC(=O)N(CCNC(=O)C3CSC4(C)CCC(=O)N34)C2=O)cc1 (stereo unspecified)	0	0	0	0	0	0	-
C[C@H](CO)N1C[C@H](C)[C@@H](CN(C)Cc2ccc(Cl)c(Cl)c2)Oc2ccc(NC(=O)CCCN(C)C)cc2CC1=O	-	-	-	-	-	0	-
Cn1cnnc1Sc1ccc(/C=C(\CCC(=O)O)c2nc3ccccc3s2)cc1[N+](=O)[O-]	0	0	0	0	0	-	-
Cc1ccc(/C=C(\CCC(=O)O)c2nc3ccccc3s2)cc1[N+](=O)[O-]	0	31	0	0	0	0	39
CO[C@H]1CN(C)C(=O)c2ccc(NC(=O)C3CC3)cc2OC[C@H](C)N(C(=O)NC(C)C)C[C@@H]1C	-	-	-	-	-	0	-
O=C(Cc1cccs1)N=Nc1c(O)[nH]c2ccccc12	0	0	0	0	0	0	-
O=C(N=Nc1c(O)[nH]c2ccccc12)c1cc(-c2cccs2)[nH]n1	0	30	0	0	0	0	32
C[C@H]1CN([C@@H](C)CO)C(=O)Cc2cc(NS(=O)(=O)c3ccccc3)ccc2O[C@@H]1CN(C)S(=O)(=O)c1cn(C)cn1	-	-	-	-	-	0	-
C/C(=N\NC(=S)NCc1ccccc1)c1cccs1	0	30	0	0	0	0	0
C/C(=N\NC(=S)NCc1ccccc1)c1ccc(Cl)s1	0	0	0	0	0	0	-
CC1(c2nnc(Cc3ccccc3)o2)CC(c2ccncc2)=NO1 (stereo unspecified)	0	43	0	0	0	0	0
CC1(c2nnc(Cc3ccccc3)o2)CC(c2ccc(Cl)cc2)=NO1 (stereo unspecified)	0	0	0	0	0	0	-
Nc1cc2[nH]c(=O)c3ccccc3c2cc1[N+](=O)[O-]	0	28	0	0	0	-	0
COc1cc2c(=O)[nH]c3cc([N+](=O)[O-])ccc3c2cc1[N+](=O)[O-]	0	0	0	0	0	0	-
Cn1c(=O)cc(SCC(=O)NCCCN2CCN(c3ccc(F)cc3)CC2)c2ccccc21	0	38	0	0	0	-	0
N#Cc1ccc(Nc2nc(-c3ccccc3)cs2)cc1	-	30	0	-	0	0	0
COc1ccc(-c2csc(Nc3ccc(Oc4ccccc4)cc3)n2)cc1	-	0	0	-	0	0	-

Screening data as filed in PubChem BioAssay.
